## scFv variants of Ab-95 (light chain) against a SARS-CoV-2 spike peptide

Values reported by Engelhart et al. 2022, doi:10.1038/s41597-022-01779-4 (FLAb copy).

The target is the same throughout: PDVDLGDISGINAS, from the HR2 region of SARS-CoV-2 spike.

The variants keep the heavy chain, the linker and the frameworks of Ab-95 (scFv order VH, three GGGGS repeats, VL).
VH: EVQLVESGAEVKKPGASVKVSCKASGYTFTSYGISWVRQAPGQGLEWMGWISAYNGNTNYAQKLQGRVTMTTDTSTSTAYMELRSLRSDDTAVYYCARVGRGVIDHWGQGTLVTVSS
VL: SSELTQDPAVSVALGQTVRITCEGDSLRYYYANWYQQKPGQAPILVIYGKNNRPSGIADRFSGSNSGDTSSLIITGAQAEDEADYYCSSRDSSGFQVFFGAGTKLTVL

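The parent was found by panning a naive human phage display library on the peptide. Library AAYL52 holds single substitutions and randomly drawn double and triple substitutions in the CDRs. AlphaSeq pools MATa yeast showing the antibodies with MATalpha yeast showing the peptide. Pairs that bind mate more often; barcode pairs of the diploids are counted by sequencing. Scores were corrected for input abundance and mapped to Kd with protein pairs of known affinity run in the same pool. There are three technical replicates.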

Each variant is given by its three light chain CDRs, as the data file delimits them; those of the parent are EGDSLRYYYAN, GKNNRPS, SSRDSSGFQVF.
Scale: log10 of Kd in nM, estimated from mating counts; low values are strong binders.
Where no diploid with the target was found in that replicate, the entry reads "nd": below detection, most likely a poor binder, though not proof of it.

{"CDR-L1": "ELDSLRYYYAN", "CDR-L2": "GKNNRPG", "CDR-L3": "SSRDSSGFCVF", "replicates, log10 nM": "3.24 / nd / nd", "signal with controls": "2/9 (3.46)"}
{"CDR-L1": "EGDSGRYYYAN", "CDR-L2": "GKNNRPS", "CDR-L3": "PSRVSSGFQVF", "replicates, log10 nM": "nd / 3.04 / 3.07", "signal with controls": "4/9 (3.69)"}
{"CDR-L1": "EGDSLRYYYAN", "CDR-L2": "GKNTRPS", "CDR-L3": "SSRDSSGFAVE", "replicates, log10 nM": "2.19 / 2.63 / 2.95", "signal with controls": "3/9 (4.23)"}
{"CDR-L1": "EGDSLRYERAN", "CDR-L2": "GKNNRPS", "CDR-L3": "SSRDWSGFQVF", "replicates, log10 nM": "1.64 / 1.68 / 1.40", "signal with controls": "2/9 (3.10)"}
{"CDR-L1": "EGDSCRYYDAN", "CDR-L2": "GKLNRPS", "CDR-L3": "SSRDSSGFQVF", "replicates, log10 nM": "3.42 / nd / 4.33", "signal with controls": "1/9 (3.06)"}
{"CDR-L1": "EGDSLRYYYAN", "CDR-L2": "GKINLPS", "CDR-L3": "SSMDSSGFQVF", "replicates, log10 nM": "nd / 5.17 / nd", "signal with controls": "1/9 (4.02)"}
{"CDR-L1": "EGDSLRFYYAN", "CDR-L2": "GKFNRPS", "CDR-L3": "SSRNSSGFQVF", "replicates, log10 nM": "2.85 / 3.57 / 2.27", "signal with controls": "4/9 (4.24)"}
{"CDR-L1": "EGDSWRYYYAN", "CDR-L2": "GKNNRPS", "CDR-L3": "SSMDCSGFQVF", "replicates, log10 nM": "nd / nd / nd", "signal with controls": "3/9 (4.18)"}
{"CDR-L1": "EGDSLRYYYAR", "CDR-L2": "GKNNRDS", "CDR-L3": "SSRDSSGFWVF", "replicates, log10 nM": "nd / 3.30 / nd", "signal with controls": "4/9 (4.17)"}
{"CDR-L1": "VGDSLRYYYAN", "CDR-L2": "GKNNRPS", "CDR-L3": "SSRDSSGRQVF", "replicates, log10 nM": "2.26 / 2.09 / 1.80", "signal with controls": "6/9 (3.90)"}
{"CDR-L1": "EGDSLRYYYAN", "CDR-L2": "GKNNRPS", "CDR-L3": "SSNDCSGFQVF", "replicates, log10 nM": "nd / nd / nd", "signal with controls": "1/9 (3.12)"}
{"CDR-L1": "EGDSLRYYYAI", "CDR-L2": "GKNNRPS", "CDR-L3": "SSRDKSGFQVY", "replicates, log10 nM": "nd / nd / nd", "signal with controls": "1/9 (5.10)"}
{"CDR-L1": "EGFSLRYYYAN", "CDR-L2": "GKNNRPQ", "CDR-L3": "SSRDSSGFMVF", "replicates, log10 nM": "2.71 / 2.52 / 2.62", "signal with controls": "1/9 (3.91)"}
{"CDR-L1": "EGDSLRYSYAN", "CDR-L2": "GKNNRPS", "CDR-L3": "SSRDSSGFHLF", "replicates, log10 nM": "1.34 / 1.22 / 0.60", "signal with controls": "5/9 (4.20)"}
{"CDR-L1": "EGDSFRYYYAN", "CDR-L2": "GKNNRPS", "CDR-L3": "RIRDSSGFQVF", "replicates, log10 nM": "2.60 / 3.87 / 2.46", "signal with controls": "1/9 (2.68)"}
{"CDR-L1": "NGDSLRYYYAN", "CDR-L2": "GKNNRPS", "CDR-L3": "SSRNSSGFQVF", "replicates, log10 nM": "2.45 / 3.03 / nd", "signal with controls": "1/9 (2.99)"}
{"CDR-L1": "EGDSLRTYYAN", "CDR-L2": "GKRNRPS", "CDR-L3": "SRRDSSGFQVF", "replicates, log10 nM": "5.43 / nd / nd", "signal with controls": "7/9 (4.14)"}
{"CDR-L1": "EGDSLRYYYAN", "CDR-L2": "GLNNKPS", "CDR-L3": "SSRDSSGFVVF", "replicates, log10 nM": "2.49 / 3.47 / 2.53", "signal with controls": "3/9 (3.82)"}
{"CDR-L1": "EGDSFRYYYAN", "CDR-L2": "GKNNRPS", "CDR-L3": "SGRDSSGFQVF", "replicates, log10 nM": "2.95 / 3.68 / 3.36", "signal with controls": "3/9 (4.31)"}
{"CDR-L1": "EPPSLRYYYAN", "CDR-L2": "GKNNRPS", "CDR-L3": "SSHDSSGFQVF", "replicates, log10 nM": "4.79 / nd / nd", "signal with controls": "2/9 (4.06)"}
{"CDR-L1": "EGDSLRYYYNN", "CDR-L2": "GKNNRPS", "CDR-L3": "LSPDSSGFQVF", "replicates, log10 nM": "3.39 / 3.94 / nd", "signal with controls": "0/9"}
{"CDR-L1": "EGDSDRYYYAN", "CDR-L2": "GKNNRPS", "CDR-L3": "SCRYSSGFQVF", "replicates, log10 nM": "3.47 / 3.58 / 3.65", "signal with controls": "3/9 (4.18)"}
{"CDR-L1": "EYDSLRYYYAN", "CDR-L2": "GKNNRPS", "CDR-L3": "SSNDSSGFQVF", "replicates, log10 nM": "nd / 4.21 / nd", "signal with controls": "2/9 (3.96)"}
{"CDR-L1": "EGESLRYYYAP", "CDR-L2": "GKNNRPS", "CDR-L3": "SSRDSSGFNVF", "replicates, log10 nM": "1.04 / 0.71 / 0.22", "signal with controls": "3/9 (4.12)"}
{"CDR-L1": "EGDSHRYYYAN", "CDR-L2": "GKNNRPS", "CDR-L3": "SSRDLSVFQVF", "replicates, log10 nM": "3.50 / 4.78 / nd", "signal with controls": "2/9 (3.94)"}
{"CDR-L1": "EGDSARYYYAN", "CDR-L2": "GSNNRPS", "CDR-L3": "SSRDSSGFSVF", "replicates, log10 nM": "3.28 / 3.42 / 3.74", "signal with controls": "8/9 (3.77)"}
{"CDR-L1": "QGDTLRYYYAN", "CDR-L2": "GKQNRPS", "CDR-L3": "SSRDSSGFQVF", "replicates, log10 nM": "3.01 / 3.21 / 3.49", "signal with controls": "1/9 (4.14)"}
{"CDR-L1": "ECDSLRYYYAP", "CDR-L2": "WKNNRPS", "CDR-L3": "SSRDSSGFQVF", "replicates, log10 nM": "nd / 5.21 / nd", "signal with controls": "2/9 (3.05)"}
{"CDR-L1": "EGDSLTYYYAN", "CDR-L2": "GKNNRPS", "CDR-L3": "SSRDSFGCQVF", "replicates, log10 nM": "3.55 / 2.73 / 3.65", "signal with controls": "4/9 (4.17)"}
{"CDR-L1": "EGDSLRYYYAT", "CDR-L2": "GKNNRPS", "CDR-L3": "CSRDSSGNQVF", "replicates, log10 nM": "3.00 / 2.93 / 2.42", "signal with controls": "5/9 (4.53)"}
{"CDR-L1": "EGDSDRYYYAN", "CDR-L2": "SKNNRPS", "CDR-L3": "SSRDSEGFQVF", "replicates, log10 nM": "nd / nd / 2.94", "signal with controls": "4/9 (3.69)"}
{"CDR-L1": "EGDSLDYYYAN", "CDR-L2": "PKNNRPS", "CDR-L3": "SSRDSSGAQVF", "replicates, log10 nM": "nd / nd / nd", "signal with controls": "2/9 (3.89)"}

Background: pairings of library AAYL52 with three empty control strains gave a value in 28% of cases (median 3.91, 5th percentile 2.90). Values in that range, when seen in few replicates, are hard to tell from nonspecific mating. Also given: how often the same scFv was detected with the empty control strains, with their mean in brackets.
For reference, the parent read 2.31 as the reference entry and 2.25 as a member of this library.